Results published in ChEMBL document CHEMBL4138093, “Discovery and characterization of selective human sphingomyelin synthase 2 inhibitors” (Eur J Med Chem, 2017).

Target: T1, Phosphatidylcholine:ceramide cholinephosphotransferase 2 (Homo sapiens) (UniProt Q8NHU3)
T1 sequence (whole entry): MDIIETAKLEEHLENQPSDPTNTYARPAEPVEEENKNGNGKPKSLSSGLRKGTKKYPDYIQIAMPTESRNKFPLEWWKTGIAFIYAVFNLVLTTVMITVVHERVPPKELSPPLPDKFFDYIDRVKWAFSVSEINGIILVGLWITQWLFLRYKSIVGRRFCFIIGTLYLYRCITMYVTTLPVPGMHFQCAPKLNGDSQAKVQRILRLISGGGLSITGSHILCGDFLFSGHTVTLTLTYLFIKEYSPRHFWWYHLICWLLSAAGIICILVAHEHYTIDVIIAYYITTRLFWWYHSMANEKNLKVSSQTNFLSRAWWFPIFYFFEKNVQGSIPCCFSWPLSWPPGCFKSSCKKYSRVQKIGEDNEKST
Test: Inhibition of human SMS2 expressed in HEK293T cells at 100 uM using C2-ceramide as substrate preincubated for 60 mins followed by substrate addition measured after 30 mins by RapidFire/mass spectrometry assay relative to control
Type: cell-based

S=C(S)OC1CC2CC1C1CCCC21 (stereo unspecified)
inhibition: < 50%
